The test concerns the target HDM2/p53 (Homo sapiens, UniProt Q00987). Kind of test: ELISA of recombinant HDM2/p53 interaction. In kind it is biochemical.

Protein sequences, listed by entry. Tags and fused reporters are not part of them.
UniProt Q00987, whole entry: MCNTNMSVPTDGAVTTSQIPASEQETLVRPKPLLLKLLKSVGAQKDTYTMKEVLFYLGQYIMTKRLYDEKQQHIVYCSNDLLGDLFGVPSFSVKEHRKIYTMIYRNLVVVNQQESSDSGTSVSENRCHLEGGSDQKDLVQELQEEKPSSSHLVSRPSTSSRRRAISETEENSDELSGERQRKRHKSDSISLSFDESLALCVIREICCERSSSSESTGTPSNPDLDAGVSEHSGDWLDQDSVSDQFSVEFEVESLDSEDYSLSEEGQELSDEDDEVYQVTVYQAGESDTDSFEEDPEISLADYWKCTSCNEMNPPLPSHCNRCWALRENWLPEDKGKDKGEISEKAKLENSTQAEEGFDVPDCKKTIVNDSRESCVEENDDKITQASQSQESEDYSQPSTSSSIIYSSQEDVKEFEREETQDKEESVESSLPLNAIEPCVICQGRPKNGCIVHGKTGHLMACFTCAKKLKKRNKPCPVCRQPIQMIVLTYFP

Results on one compound are retold here after US10183912B2, “HDMX inhibitors and their use for cancer treatment” (priority 2014, dated 2019).

As for `COc1ccc(C2=N[C@@H](c3ccc(Cl)cc3)[C@@H](c3ccc(Cl)cc3)N2C(=O)N2CCNC(=O)C2)c(OC(C)C)c1` [nutlin-3, reference compound], the “disruption of HDM2/p53 interaction” value was “disrupts the interaction between p53 and HDM2”.
